The assay deals with collagen-induced platelet aggregation inhibitor isolated from saliva of Triatoma pallidipennis (Triatoma pallidipennis).

Substance aprotenin (from UniProt P00974) showed a maximal collagen-induced aggregation with "Superose"-pool preincubated 15 min with protease inhibitors (52% with "Superose"-pool alone, 86% control) (% maximal aggregation) of 48.

These data come from patent US5756454.
